# Assay outcomes deposited in PubChem BioAssay by Broad Institute.
# In the library only some 1% were active in any assay of this set; here they are far more common.
# Yeast UUG start = modulators of start codon recognition fidelity in yeast. activity score, % at 18.7 µM. S. cerevisiae UUG-firefly luciferase reporter, luminescence/redox ratio. 350,000 compounds, 0.13% hits;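 active means replicate mean at a twofold rise or more, about +100% in these data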;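 further: firefly luciferase made from a UUG start codon reports start codon fidelity; reporter light over untreated wells divided by growth signal over untreated wells; some hits fall short of that in this replicate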
# CDK5 p35 inh = inhibitors of human CDK5/p35 kinase. Recombinant CDK5/p35, ADP-Glo luminescence, 60 min. Q00535+Q15078. inhibition, % at 10 µM. 330,000 compounds, 0.01% hits. AID 488839;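 active = highest replicate inhibition of at least 50% and at least 75% of replicates reaching 50%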;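 also: plate controls were DMSO neutral control for no effect and GW8510 at 10 µM for full effect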
# Rtt109 Vps75 = blocks Candida albicans Rtt109/Vps75 acetyltransferase activity. Q5AAJ8. purified Rtt109/Vps75, ThioGlo CoA-SH fluorescence, 4 h. inhibition, % at 34.9 µM. 330,000 compounds, 0.16% hits;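 active = inhibition of at least 50% in every replicate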
# C2C12 statin = protects C2C12 myotubes from simvastatin toxicity. 330,000 compounds, 0.78% hits. AID 602340. rescue of ATP level, % at 7.49 µM. ATP luminescence, 48 h; scaled: DMSO 0, geranylgeraniol control 100;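 active = mean ATP rescue above about 67%, or every replicate alone reaching that limit, limit read from the data, passing the limit was not always enough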;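 also: myotubes were challenged with 10 µM simvastatin during compound exposure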
# Cneo AK release = causes C. neoformans cell lysis. adenylate kinase release luminescence, 4 h; normalised: neutral wells 0, clomiphene wells 100. lysis activity, % at 15 µM. 360,000 compounds, 0.2% hits;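 active = mean lysis activity across replicates of at least 80%, whatever share of replicates individually reach that level; inactive = mean lysis activity below 80%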
#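 Assay system: Cryptococcus neoformans yeast cells / Dosing: single-point compound dose / Timing: 4 h at 37 °C static, read 1 h later / Measured by: luminescence of released adenylate kinase using an AK detection reagent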
# An asterisk follows results filed as active; / = not tested or not shown.
[1] CCOC(=O)Cn1c(Br)nc2c1c(=O)[nH]c(=O)n2C
[2] O=C(CN1CCOCC1)NCC[C@H]1CC[C@H](NC(=O)Nc2ccc(Cl)cc2)[C@@H](CO)O1
[3] COc1ccccc1-c1noc(-c2ccncc2)n1
[4] COc1ccc(Br)cc1-c1noc(-c2ccncc2)n1
[5] COc1ccccc1-c1noc(-c2cccs2)n1
[6] COc1ccc(-c2nc(-c3cccs3)no2)cc1
screen / no.,1,2,3,4,5,6
Yeast UUG start,-4.4,6.4,-29.3,-8.9,-18.1,/
CDK5 p35 inh,0.4,/,-0.6,0.8,0.6,5.3
Rtt109 Vps75,0.0,/,-6.0,16.9,3.5,52.3*
C2C12 statin,-3.4,-1.6,112.0*,-0.2,223.5*,/
Cneo AK release,2.3,-0.9,1.3,-1.9,-3.0,/

[7] C[C@@H]1CN([C@H](C)CO)C(=O)c2cccc(NC(=O)c3nc4ccccc4s3)c2O[C@@H]1CN(C)C(=O)Nc1cccc2ccccc12
[8] C[C@@H]1CN([C@@H](C)CO)C(=O)c2cccc(NC(=O)c3nc4ccccc4s3)c2O[C@H]1CN(C)C(=O)Nc1ccccc1
[9] C[C@H](CO)N1C[C@H](C)[C@@H](CN(C)C(=O)Nc2cccc3ccccc23)Oc2c(cccc2N(C)C)C1=O
[10] C[C@H](CO)N1C[C@H](C)[C@@H](CN(C)C(=O)Nc2ccc(C(F)(F)F)cc2)Oc2c(cccc2N(C)C)C1=O
[11] C[C@@H]1CN([C@H](C)CO)C(=O)c2cc(N(C)C)ccc2O[C@@H]1CN(C)C(=O)Nc1ccc(C(F)(F)F)cc1
[12] C[C@@H]1CN([C@@H](C)CO)C(=O)c2cccc(N(C)C)c2O[C@H]1CN(C)C(=O)Nc1ccc(C(F)(F)F)cc1
screen / no.,7,8,9,10,11,12
Yeast UUG start,-11.1,22.6,30.0,5.6,50.9,17.9
CDK5 p35 inh,/,/,/,0.9,/,/
Rtt109 Vps75,/,/,/,26.2,/,/
C2C12 statin,80.6*,22.2,16.0,-22.9,-20.5,26.9
Cneo AK release,-1.4,2.6,82.5*,0.4,107.2*,99.0*

[13] CO[C@@H]1CN(C)C(=O)c2cc(NC(=O)C3CC3)ccc2OC[C@H](C)N(CCC(F)(F)F)C[C@H]1C
[14] Cc1c(C(=O)O)oc2c(F)cccc12
[15] Cc1c(C(=O)N2CCC[C@H]2CO)oc2c(F)cccc12
[16] O=C(c1nnsc1S(=O)c1ccc(Cl)cc1)N1CCOCC1 (configuration not stated)
[17] C/C=C/C(=O)OCC(=O)NC(=O)NC(C)C
[18] COc1cc(/C=C/C(=O)OCC(=O)NC(=O)NC(C)C)cc(OC)c1OC
screen / no.,13,14,15,16,17,18
Yeast UUG start,/,-8.1,-11.2,-30.6,-22.4,-2.0
CDK5 p35 inh,/,-0.7,1.3,0.9,-1.7,6.1
Rtt109 Vps75,/,0.8,56.7*,136.1*,-11.7,3.3
C2C12 statin,5.7,/,1.6,-79.6,100.8*,4.6
Cneo AK release,2.9,5.3,2.0,1.1,-2.0,1.8

[19] O=C(COC(=O)Cn1nnc(-c2ccccc2)n1)Nc1ccccc1Br
[20] COc1ccc(OC)c(NC(=O)COC(=O)Cn2nnc(-c3ccccc3)n2)c1
[21] O=C1C2C3c4ccccc4C(c4ccccc43)C2c2nc3ccccc3n21 (configuration not stated)
[22] CN(C)c1ccc(C2C=C(c3ccc(Cl)cc3OC(F)F)Nc3ncnn32)cc1 (configuration not stated)
[23] Cc1ccc(C2C=C(c3ccccc3OC(F)F)Nc3ncnn32)cc1 (configuration not stated)
[24] O=C1CCC([N+](=O)[O-])C(c2cc(Br)ccc2F)N1 (configuration not stated)
screen / no.,19,20,21,22,23,24
Yeast UUG start,-6.8,-0.9,4.6,-6.0,-18.7,-15.7
CDK5 p35 inh,-1.1,-0.8,3.1,-1.8,0.8,0.0
Rtt109 Vps75,-4.9,-2.9,3.8,-4.8,-423.8,2.3
C2C12 statin,99.7*,5.3,114.9*,-116.9,106.7*,1.1
Cneo AK release,-1.0,0.1,0.9,4.0,-0.1,3.7

[25] O=C1CCC([N+](=O)[O-])C(c2ccc(Cl)cc2Cl)N1 (configuration not stated)
[26] CN1C(=O)c2cc(NC(=O)C3CCCCC3)ccc2OC[C@@H]2O[C@@H](CC(=O)NCCc3ccncc3)CC[C@H]21
[27] Cc1ccc(C)c(NC(=O)CSc2nnc(C3CCCCC3)o2)c1
[28] COc1ccc(S(=O)(=O)Nc2ccc3c(c2)CC(=O)N([C@H](C)CO)C[C@H](C)[C@H](CN(C)S(=O)(=O)c2ccccc2)O3)cc1
[29] CC(C)(Oc1ccc(Cl)cc1)C(=O)NCc1ccco1
[30] CC(C)(Oc1ccc(Cl)cc1)C(=O)NCc1ccncc1
screen / no.,25,26,27,28,29,30
Yeast UUG start,-9.6,2.4,-4.7,-1.8,-23.0,-16.5
CDK5 p35 inh,2.0,/,-4.2,/,1.1,0.7
Rtt109 Vps75,-2.1,/,-17.3,/,0.1,0.5
C2C12 statin,70.2*,-13.1,71.4*,-7.8,122.8*,3.3
Cneo AK release,0.7,-3.2,-7.3,5.9,-2.2,0.4

# Sorted by SMILES length (falling): 4 of the compounds above
[28] COc1ccc(S(=O)(=O)Nc2ccc3c(c2)CC(=O)N([C@H](C)CO)C[C@H](C)[C@H](CN(C)S(=O)(=O)c2ccccc2)O3)cc1
[25] O=C1CCC([N+](=O)[O-])C(c2ccc(Cl)cc2Cl)N1 (configuration not stated)
[27] Cc1ccc(C)c(NC(=O)CSc2nnc(C3CCCCC3)o2)c1
[30] CC(C)(Oc1ccc(Cl)cc1)C(=O)NCc1ccncc1
screen / no.,28,25,27,30
Yeast UUG start,-1.8,-9.6,-4.7,-16.5
CDK5 p35 inh,/,2.0,-4.2,0.7
Rtt109 Vps75,/,-2.1,-17.3,0.5
C2C12 statin,-7.8,70.2*,71.4*,3.3
Cneo AK release,5.9,0.7,-7.3,0.4

# Carrying on.
[31] CCOC(=O)Nc1c(C(=O)OC)[nH]c2cc(OC)ccc12
[32] CCOC(=O)c1[nH]c2ccc(OC)cc2c1NC(=O)OC
[33] CCOC(=O)c1[nH]c2ccc(Br)cc2c1NC(=O)CCN1CCOCC1
[34] CCOC(=O)c1[nH]c2ccc(OC)cc2c1NC(=S)N1CCN(C(=O)OCC)CC1
[35] CCOC(=O)c1[nH]c2ccc(Br)cc2c1NC(=O)CCN1CCN(C(=O)OCC)CC1
[36] CCOC(=O)c1[nH]c2ccc(OC)cc2c1NC(=O)CCN1CCCC(C)C1 (configuration not stated)
screen / no.,31,32,33,34,35,36
Yeast UUG start,-10.6,-11.4,-8.5,/,-15.6,-7.4
CDK5 p35 inh,-0.7,0.0,1.7,10.5,0.5,0.0
Rtt109 Vps75,-0.3,-3.5,0.5,16.1,1.3,-2.1
C2C12 statin,107.5*,-3.2,/,-15.1,104.4*,144.7*
Cneo AK release,-1.3,3.2,1.2,/,-2.6,-1.7

[37] CCCCOC(=O)c1ccccc1N1C(=O)C2C3CCC(C3)C2C1=O (configuration not stated)
[38] CO[C@@H]1CN(C)C(=O)c2cc(NC(=O)C3CCC3)ccc2OC[C@H](C)N(C)C[C@H]1C
[39] CC(C)(C)C1CCc2c(sc(NC(=O)CSc3nnc(-c4ccccc4)o3)c2C#N)C1 (configuration not stated)
[40] Cc1ccnc(SCC(=O)Nc2sc3c(c2C#N)CCC(C(C)(C)C)C3)n1 (configuration not stated)
[41] CCOCc1cc(C2NC(=O)NC(C)=C2C(=O)OCC)ccc1OC (configuration not stated)
[42] CCOC(=O)C1=C(C)NC(=O)NC1c1ccc(OC)c(CN2CCOCC2)c1 (configuration not stated)
screen / no.,37,38,39,40,41,42
Yeast UUG start,10.7,/,-4.0,-1.6,-7.9,-14.8
CDK5 p35 inh,-0.6,/,-2.6,2.8,-2.0,1.5
Rtt109 Vps75,-3.9,/,56.2*,-2.9,10.2,-5.6
C2C12 statin,82.5*,-1.8,4.7,-3.8,8.9,78.6*
Cneo AK release,0.6,-3.2,-3.9,6.8,5.5,6.7

[43] CCCNC(=O)N1C[C@@H](C)[C@@H](OC)CN(C)C(=O)c2cc(NC(=O)C3CCC3)ccc2OC[C@@H]1C
[44] COc1cccc(CNc2ccccc2O)c1OCc1ccccc1F
[45] COCC(=O)N1[C@H](C#N)[C@H](c2ccc(C#Cc3ccccc3F)cc2)[C@H]1CO
[46] N#C[C@H]1[C@@H](c2ccc(-c3cccc(F)c3)cc2)[C@H](CO)N1C(=O)NC1CCCC1
[47] N#C[C@@H]1[C@@H](c2ccc(-c3cccc(F)c3)cc2)[C@H](CO)N1C(=O)NC1CCCC1
screen / no.,43,44,45,46,47
Yeast UUG start,/,-12.6,-28.3,0.7,-1.0
CDK5 p35 inh,/,0.1,/,/,/
Rtt109 Vps75,/,3.0,/,/,/
C2C12 statin,11.5,96.1*,-2.9,-23.8,108.2*
Cneo AK release,/,1.9,83.0*,0.3,-3.2
